## Yeast mating assay B: variants of the scFv Ab-14

The measurements come from Li et al. 2023 (doi:10.1038/s41467-023-39022-2) through the FLAb antibody collection.

The target is the same throughout: PDVDLGDISGINAS, from the HR2 region of SARS-CoV-2 spike.

Each scFv is VH, a (GGGGS)3 linker, VL, as in the parent Ab-14, and differs from it in the CDRs of the light chain only.
VH: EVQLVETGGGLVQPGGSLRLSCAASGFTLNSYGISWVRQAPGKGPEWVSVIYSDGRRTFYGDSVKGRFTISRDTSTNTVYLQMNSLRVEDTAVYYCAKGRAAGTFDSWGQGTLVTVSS
VL: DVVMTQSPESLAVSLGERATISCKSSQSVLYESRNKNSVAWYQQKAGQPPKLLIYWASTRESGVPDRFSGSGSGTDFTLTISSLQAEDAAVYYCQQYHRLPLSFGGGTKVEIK

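This is the validation round: designs drawn from the data on random variants, tested in the same kind of assay. Group labels follow the data file (Ctrl: baseline library sampled from a position-specific scoring matrix, with some repeated check sequences; En: ensemble of fine-tuned language models; GP: Gaussian process model; HC: hill climbing; Gen: genetic algorithm; Gibbs: Gibbs sampling; a sequence that several methods proposed may carry one label only). AlphaSeq pools MATa yeast showing the antibodies with MATalpha yeast showing the peptide. Pairs that bind mate more often; barcode pairs of the diploids are counted by sequencing. A regression on co-assayed BCL2-family reference pairs converts the normalised counts of each replicate to an apparent Kd. The assay was run in six technical replicates.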

Variants are written as CDR1, CDR2 and CDR3 of the light chain (limits as in the source). Parent: KSSQSVLYESRNKNSVA, WASTRES, QQYHRLPLS. Values are log10 of the apparent Kd in nM; lower means stronger binding. The mean shown is taken over the replicates in which the pair was detected. A pair that was not seen in any replicate is written "nd"; this usually means weak binding, but a binder can also be missed.

The variant KQSQSVLYESRNKNSVA | MASTRES | QQYERLPLS [GP_HC] showed 0.89 (6 of 6 replicates).
The variant DSSQGVLYESRNKNSVA | QASSRES | QQYHRLPLS [Ctrl] showed 1.88 (6 of 6 replicates).
The variant VLSGITNQAMSKHNSVA | NVTMRPD | QQYHRLPLS [En_Gen] showed 0.84 (6 of 6 replicates).
The variant QINVDRLMNYLSNDAIA | GKTLRVD | QQYMRLPLS [En_Gibbs] showed 0.03 (6 of 6 replicates).
The variant KLSQSVLYESRTYNSVA | NASTRES | QQYHRLPLS [GP_HC] showed -0.32 (6 of 6 replicates).
The variant KSSQSVLYENRCKYSVA | WASTREA | QQYHRLPLS [Ctrl] showed 1.09 (2 of 6 replicates).
The variant HFSQVTMYGSWNYNSVA | QTSTREE | QQYDRLPLS [En_HC] showed 0.75 (6 of 6 replicates).
The variant KLSSVTGHMSMAKNNVA | EMETREK | QQYERLPLS [En_Gen] showed 1.10 (6 of 6 replicates).
The variant RVQLNSGHIDMHWYSIA | SASIRAD | QQYFRLPLA [En_Gibbs] showed 0.98 (6 of 6 replicates).
The variant KLFDETSSEQVNARAVA | DSLTVHE | QQYHMLPLS [En_Gibbs] showed 1.74 (6 of 6 replicates).
The variant TISQLYNQALGMRNNVA | NNQTRED | QQYKRLPLS [En_Gen] showed 1.74 (6 of 6 replicates).
The variant HSSPSVLYESRNKNAVA | NASTRES | QQYHRLPLS [GP_HC] showed 0.01 (6 of 6 replicates).
The variant KSSQSVLYESREKNSVA | AASTRES | QQYHRLPLS [Ctrl] showed 0.81 (6 of 6 replicates).
The variant KFEWSQLYESRNCNSVA | NASTRES | QQYWRLPLS [GP_Gibbs] showed 1.08 (6 of 6 replicates).
The variant HISQMWMLESKHKNNVA | EESTRED | QSYFRLPLS [En_HC] showed 0.89 (6 of 6 replicates).
The variant KLSQSVLYESRNKNSVA | GASTRES | QNYHRLPLS [GP_Gen] showed -0.09 (6 of 6 replicates).
The variant KLEQSVMLESRNVNSVA | SASRREL | QQYHRLPLS [GP_Gibbs] showed 0.09 (6 of 6 replicates).
The variant HMSAITLGGMRQRNSVA | QMTTREN | QQYDHLPLS [En_Gen] showed 0.32 (6 of 6 replicates).

Second part, the sequence after the result:

0.18 (6 of 6 replicates): KCKQSSDYESRNFNSVA | NASTREV | QQYHRLPLS [GP_Gibbs].
0.64 (6 of 6 replicates): KSSQSVLYESRNKNSVA | EASTREQ | QQYHRLPLS [GP_Gen].
0.23 (6 of 6 replicates): KSSQSVDNESRNKNSVA | DASTRES | QQYHRMPLS [GP_HC].
nd (0 of 6 replicates): KQSQSVLYESRNKNSVA | QASTRES | QQVHRLPLS [Ctrl].
1.25 (6 of 6 replicates): KLPFSCLYESRNKNSVA | MASTRCV | QQYHRLPLS [GP_Gibbs].
0.47 (6 of 6 replicates): ESSQSVLSESRNKNSVA | EASTRES | QQYHRLPLS [Ctrl].
0.43 (6 of 6 replicates): KISISYLYESRNHNSVA | EASTREQ | QQYHRLPLS [GP_HC].
nd (0 of 6 replicates): KSSQSVLYESDNDNSVA | WASTRES | QVYHRLPLS [Ctrl].
0.09 (6 of 6 replicates): ALASTGHQVDSQMQNIA | DGMERES | QQYNRLPLT [En_Gibbs].
0.46 (6 of 6 replicates): KSSQSVPYESRNKNSVA | QASTREL | QQYARLPLA [Ctrl].
0.19 (6 of 6 replicates): QLYEMSYELSGKTHSVA | DNSTRGD | QQYFRLPLD [En_Gen].
0.26 (6 of 6 replicates): QTTAFYEHGYDQNQAMA | DVTMRDQ | QQYERLPLS [En_Gibbs].
-0.07 (6 of 6 replicates): KVSQSDPYESRNKNSVA | EASTRES | QQYHRLPLS [GP_Gen].
0.20 (12 of 12 replicates): KSSQSVLFESRNKNSVA | DASTRES | QQYHRLPLS [Ctrl+En_HC].
-0.01 (6 of 6 replicates): KVQASQEYWSRNKNSVA | NASTRET | QQYHRLPLS [GP_Gibbs].
1.15 (6 of 6 replicates): KISFQYRYEQLSKNSIA | EVQTRLK | QQYHRLPLS [En_HC].
nd (0 of 6 replicates): KSSQSVLYESRNKNSVA | WASTRSS | QQCHRNPLS [Ctrl].
-0.25 (6 of 6 replicates): KLSQSWMGESRNKNSVA | QASTREQ | QQYHRLPLS [GP_Gibbs].

The first 2 variants above that were never detected:

CDR-L1,CDR-L2,CDR-L3,group,"mean, log10 nM",detected
KQSQSVLYESRNKNSVA,QASTRES,QQVHRLPLS,Ctrl,nd,0/6
KSSQSVLYESDNDNSVA,WASTRES,QVYHRLPLS,Ctrl,nd,0/6

In the paper, a design with two or fewer of six values counts as a poor binder. Some sequences occur more than once in the pool; their replicates are pooled. Of ten entries with the parent sequence, four were seen in most replicates (averages 0.34 to 2.37), three in one and three in none, so single entries are noisy. A sequence measured in both rounds can read differently, since the two assays cover different ranges. Empty control strains, which show no peptide, gave a signal in 4% of pairings with all light chain designs; the median was 2.64 and 95% of these signals were weaker than 1.59. No background was subtracted.